Assay results reported in patent publication EP4830706A1, “COMPOSITION FOR PREVENTING OR TREATING ALZHEIMER'S DISEASE, CONTAINING NOVEL COMPOUND” (dated 2026).

Tests used:
[1] = system: Tau-P301L; test: Tau aggregation: insoluble/soluble fractionation and Western blot in transfected HEK293 cells; conditions: for insoluble mutant tau fraction: HEK293 cells transfected with Tau-P301L, 5 µM, 24 hours, pellet (insoluble) fraction, FIGs. 1A and 1B
Method: (§1) For SDS-PAGE, proteins were extracted from cells using RIPA buffer (50 mM Tris-Cl, pH 7.5, 150 mM NaCl, 1% NP-40, 0.1% SDS, and 10% sodium deoxycholate). Samples were separated by SDS-PAGE and transferred to a PVDF membranes. The blotted membrane was blocked with 3% skim milk containing TBST buffer for 1 h and incubated with specific antibodies. Reacted antibodies were detected by ECL and X-ray film exposure. HA (sc-7392) and GFP (green fluorescent protein; sc-8036) antibodies were purchased from Santa Cruz Biotechnology (Santa Cruz, CA, USA). Actin antibody (66009-1-lg) and α-tubulin antibody (66240-1-lg) were obtained from Proteintech (Rosemont, IL, USA). The anti-TH antibody (NB300-109) was purchased from Novus Biologicals (CO, USA). As secondary antibodies, HRP-conjugated goat anti-mouse, goat anti-rabbit, and mouse anti-goat antibodies (Pierce, Thermo Fisher Scientific, Inc., Rockford, IL, USA) were used. After incubation, cells were harvested using TNN buffer (50 mM Tris-Cl, pH 7.5, 150 mM NaCl, 0.3% NP-40) and centrifuged at 14,000 rpm for 30 minutes to separate the pellet (insoluble) and the supernatant (soluble). "Input" refers to whole cell lysates (WCL) harvested using RIPA buffer. Actin was used as a loading control.
GFP-Tau (WT; #46904, P301L; #46908) plasmids were purchased from Addgene (Cambridge, MA, USA). Transfection was performed using Jet-PEI reagent (JetPEI; Polyplus transfection, New York, NY, USA) according to the manufacturer's protocol. Briefly, the vector was mixed with JetPEI reagent in 150 mM NaCl buffer, and the mixture was incubated for 15 minutes. The mixture was added to cells in serum-free medium for 4 h. After incubation, the cells were replaced with culture medium supplemented with 10% FBS.
To investigate the effect of the PRG-A compound on tau aggregation (tau tangles), the inventors transfected HEK293 cells with indicator vectors (Tau-WT, Tau-P301L) and treated the cells with selected compounds (5 µM) for 24 hours. […]

[2] = system: normal human fibroblasts; test: Cell viability, MTT assay; conditions: 48 h; for cytotoxic effects: normal human fibroblasts, FIG. 3
Method: HEK293 cells were obtained from the American Type Culture Collection (ATCC, Manassas, VA, USA) and maintained in DMEM medium supplemented with 10% fetal bovine serum and 1% penicillin-streptomycin at 37°C in a humidified atmosphere with 5% CO2. SK-N-SH cells were purchased from the Korean Cell Line Bank (KCLB, Seoul, South Korea) and maintained in MEM medium supplemented with 10% fetal bovine serum, 1% antibiotics, 25 mM HEPES, and 300 mg/L L-glutamine. Human fibroblasts (person) were obtained from Coriell Cell Repositories (New Jersey, USA) and maintained in EMEM supplemented with 15% FBS, 2 mM glutamine, and 26 mM HEPES, without antibiotics.
To investigate cell viability, cells were treated with chemicals (PRG-A compound) for 48 h. Then, the cells were incubated with 0.5 mg/ml 3-(4,5-dimethylthiazol-2-yl)-2,5-diphenyltetrazolium bromide (MTT) solution (475989; Merck, Darmstadt, Germany) at 37°C for 4 h. After removing the excess solution and washing with PBS, the precipitated substances were dissolved in 200 µl of DMSO and quantified by measuring the absorbance at 540 nm.
Lastly, to determine the toxicity of PRG-A compounds, normal human fibroblasts and neuroblastoma cells (SK-N-SH) were cultured with each compound for 48 h, and cell viability was measured via the MTT assay. The effect on survival rates of neuronal cells and normal fibroblasts was identified (FIG. 3).

[3] = system: presenilin 1 (PS1); test: Immunofluorescence staining of PS1 inclusions in cells transfected with PS1-HA or PS1-GFP; conditions: PS1-HA or PS1-GFP vectors 24 hours, then 5 µM for 24 hours; FIGs. 2A and 2B
Method: Cells on coverslips were washed with PBS, fixed with 4% paraformaldehyde (PFA) for 30 min at room temperature, and then permeabilized in 0.1% Triton X-100/PBS for 10 min. After treating cells with a blocking solution (3% anti-human antibody diluted 1:500 in PBS) for 1 h, cells were incubated with HA (diluted 1:500) overnight at 4°C. Finally, cells were incubated with FITC- and rhodamine-conjugated secondary antibodies for 6 h at 4°C. Nuclei were stained with 4,6-diamidino-2-phenylindole (DAPI), and endoplasmic reticulum (ER) was stained with ER-Tracker Red dye for 10 min. Cells were washed three times with PBS, and then coverslips were mounted with mounting solution (H-5501; Vector Laboratories, Burlingame, CA, USA), followed by analysis with fluorescence microscopy (Zeiss).
It is also known that mutations in presenilin 1 (PS1) are associated with Alzheimer's disease (AD). Therefore, to examine the effect of the PRG-A compound on PS1 expression and localization, cells were transfected with PS1-HA or PS1-GFP vectors for 24 hours. After incubation, cells were treated with the PRG-A compound (5 µM) for 24 hours. Cells were fixed with 4% PFA and stained with an HA antibody (green) and ER marker (red) to monitor PS1 inclusions (white arrows, strong PS1 intensity) (FIGs. 2A and 2B). Ectopically expressed PS1 formed aggregates in the cytoplasm (FIGs. 2A and 2B). […]

[4] = system: presenilin 1 (PS1); test: SDS-PAGE / HA antibody detection of oligomeric PS1 in PS1-HA transfected SK-N-SH cells; conditions: treated for 24 hours, FIG. 2C
Method: as §1
It is also known that mutations in presenilin 1 (PS1) are associated with Alzheimer's disease (AD). […]

| Structure (SMILES) | tau aggregation ([1]; induced by overexpression of Tau-WT and Tau-MT, Fig. 1 A and B) | cytotoxic effects [2] | PS1 aggregates (IF staining) [3] | insoluble mutant tau fraction [1] | oligomeric PS1 [4] | impact on cell viability ([2]; high doses (50 and 100 µM), cell type not given) |
| --- | --- | --- | --- | --- | --- | --- |
| CC1(C)Oc2cc3oc(=O)ccc3cc2C[C@@H]1O | only marginal effects | – | – | – | – | – |
| COc1cc(/C=C/CO[C@H]2Cc3cc4ccc(=O)oc4cc3OC2(C)C)ccc1O | – | did not exhibit cytotoxic effects | reduced | significantly reduced | reduced | – |
| COc1cc(/C=C/CO[C@H]2Cc3cc4ccc(=O)oc4cc3OC2(C)C)ccc1[N+](=O)[O-] | – | did not exhibit cytotoxic effects | – | – | – | – |
| CC1(C)Oc2cc3oc(=O)ccc3cc2C[C@@H]1OC(=O)/C=C/c1ccc(F)cc1 | – | – | – | – | – | low impact |
| COc1cc(/C=C/C(=O)O[C@H]2Cc3cc4ccc(=O)oc4cc3OC2(C)C)ccc1O | – | did not exhibit cytotoxic effects | reduced | significantly reduced | reduced | – |
